The data set is described as follows: 14-day clinical study: tripro-amylin plasma peaks. Format: in vivo, human. The text has this: In a 14-day double-blind, placebo controlled clinical study, for example, patients with juvenile-onset diabetes who continued their usual insulin therapy and self-injected tripro-amylin three times daily had lower average blood glucose levels after a test meal than did patients who received insulin and placebo. […] See also Table 2 below. […] These thrice-daily doses of tripro-amylin reflect per day dosages of, respectively, 90, 300, and 900 micrograms per patient. For a patient of average weight, about 70 kg, these reflect doses of 1.3 μg/kg/day, 4.3 μg/kg/day, and 12.9 μg/kg/day. An average per day insulin dose is about 50 units, or 2000 micrograms.

For the compound `CC[C@H](C)[C@H](NC(=O)[C@@H]1CCCN1C(=O)CNC(=O)[C@H](Cc1ccccc1)NC(=O)[C@H](CC(N)=O)NC(=O)[C@H](CC(N)=O)NC(=O)[C@H](CO)NC(=O)[C@H](CO)NC(=O)[C@H](Cc1c[nH]cn1)NC(=O)[C@@H](NC(=O)[C@H](CC(C)C)NC(=O)[C@H](Cc1ccccc1)NC(=O)[C@H](CC(N)=O)NC(=O)[C@H](C)NC(=O)[C@H](CC(C)C)NC(=O)[C@H](CCCNC(=N)N)NC(=O)[C@H](CCC(N)=O)NC(=O)[C@@H](NC(=O)[C@H](C)NC(=O)[C@@H]1CSSC[C@H](NC(=O)[C@@H](N)CCCCN)C(=O)N[C@@H](CC(N)=O)C(=O)N[C@@H]([C@@H](C)O)C(=O)N[C@@H](C)C(=O)N[C@@H]([C@@H](C)O)C(=O)N1)[C@@H](C)O)C(C)C)C(=O)N[C@@H](CC(C)C)C(=O)N1CCC[C@H]1C(=O)N1CCC[C@H]1C(=O)N[C@H](C(=O)N[C@@H](CC(N)=O)C(=O)N[C@H](C(=O)NCC(=O)N[C@@H](CO)C(=O)N[C@@H](CC(N)=O)C(=O)N[C@H](C(=O)N[C@@H](Cc1ccc(O)cc1)C(N)=O)[C@@H](C)O)C(C)C)[C@@H](C)O` [tripro-amylin, ^25,28,29 Pro-human-amylin], the Tripro-amylin plasma peaks reads like this: (30 micrograms 3 times daily) 22 ± 4 picomoles; (100 micrograms 3 times daily) 44 ± 14 picomoles; (300 micrograms 3 times daily) 173 ± 40 picomoles.

Source of the values: patent US5814600A, “Method and composition for treatment of insulin requiring mammals” (Amylin Pharmaceuticals Inc., priority 1994, dated 1998).
